Patent US20090227575A1, “7H-PYRROLO[2,3-H]QUINAZOLINE COMPOUNDS, THEIR USE AS mTOR KINASE AND PI3 KINASE INHIBITORS, AND THEIR [sequence]” (Wyeth, priority 2008, published 2009)

target: Human mTOR (Homo sapiens, UniProt P42345); experiment: mTOR kinase assay (DELFIA format, purified enzyme); assay type: biochemical; parameters: FLAG; settings: read-out: TOR Kinase IC50

| Compound | IC50 |
| --- | --- |
| Cn1ccc2c3nc(-c4cccc(NC(=O)Nc5ccncc5)c4)nc(N4CCOCC4)c3ccc21 [Example 122, 1-[3-(7-methyl-4-morpholin-4-yl-7H-pyrrolo[2,3-h]quinazolin-2-yl)phenyl]-3-pyridin-4-ylurea] | 1200 nM |
| 3-(7-methyl-4-morpholin-4-yl-7H-pyrrolo[2,3-h]quinazolin-2-yl)phenyl]methanol [Example 37] | 1200 nM |
| Cn1ccc2c3nc(-c4cccc(F)c4)nc(N4CCOCC4)c3ccc21 [Example 52, 2-(3-fluorophenyl)-7-methyl-4-morpholin-4-yl-7H-pyrrolo[2,3-h]quinazoline] | 1200 nM |
| Cn1ccc2c3nc(-c4ccc(NS(C)(=O)=O)cc4)nc(N4CCOCC4)c3ccc21 [Example 21, N-[4-(7-methyl-4-morpholin-4-yl-7H-pyrrolo[2,3-h]quinazolin-2-yl)phenyl]methanesulfonamide] | 1200 nM |
